Assay results taken from paper PMC5054432 (Scientific Reports, 2016).

Chains of the proteins cited; added tags and fusions are not shown. Residues count along the entry.
UniProt Q01097, 27-1482: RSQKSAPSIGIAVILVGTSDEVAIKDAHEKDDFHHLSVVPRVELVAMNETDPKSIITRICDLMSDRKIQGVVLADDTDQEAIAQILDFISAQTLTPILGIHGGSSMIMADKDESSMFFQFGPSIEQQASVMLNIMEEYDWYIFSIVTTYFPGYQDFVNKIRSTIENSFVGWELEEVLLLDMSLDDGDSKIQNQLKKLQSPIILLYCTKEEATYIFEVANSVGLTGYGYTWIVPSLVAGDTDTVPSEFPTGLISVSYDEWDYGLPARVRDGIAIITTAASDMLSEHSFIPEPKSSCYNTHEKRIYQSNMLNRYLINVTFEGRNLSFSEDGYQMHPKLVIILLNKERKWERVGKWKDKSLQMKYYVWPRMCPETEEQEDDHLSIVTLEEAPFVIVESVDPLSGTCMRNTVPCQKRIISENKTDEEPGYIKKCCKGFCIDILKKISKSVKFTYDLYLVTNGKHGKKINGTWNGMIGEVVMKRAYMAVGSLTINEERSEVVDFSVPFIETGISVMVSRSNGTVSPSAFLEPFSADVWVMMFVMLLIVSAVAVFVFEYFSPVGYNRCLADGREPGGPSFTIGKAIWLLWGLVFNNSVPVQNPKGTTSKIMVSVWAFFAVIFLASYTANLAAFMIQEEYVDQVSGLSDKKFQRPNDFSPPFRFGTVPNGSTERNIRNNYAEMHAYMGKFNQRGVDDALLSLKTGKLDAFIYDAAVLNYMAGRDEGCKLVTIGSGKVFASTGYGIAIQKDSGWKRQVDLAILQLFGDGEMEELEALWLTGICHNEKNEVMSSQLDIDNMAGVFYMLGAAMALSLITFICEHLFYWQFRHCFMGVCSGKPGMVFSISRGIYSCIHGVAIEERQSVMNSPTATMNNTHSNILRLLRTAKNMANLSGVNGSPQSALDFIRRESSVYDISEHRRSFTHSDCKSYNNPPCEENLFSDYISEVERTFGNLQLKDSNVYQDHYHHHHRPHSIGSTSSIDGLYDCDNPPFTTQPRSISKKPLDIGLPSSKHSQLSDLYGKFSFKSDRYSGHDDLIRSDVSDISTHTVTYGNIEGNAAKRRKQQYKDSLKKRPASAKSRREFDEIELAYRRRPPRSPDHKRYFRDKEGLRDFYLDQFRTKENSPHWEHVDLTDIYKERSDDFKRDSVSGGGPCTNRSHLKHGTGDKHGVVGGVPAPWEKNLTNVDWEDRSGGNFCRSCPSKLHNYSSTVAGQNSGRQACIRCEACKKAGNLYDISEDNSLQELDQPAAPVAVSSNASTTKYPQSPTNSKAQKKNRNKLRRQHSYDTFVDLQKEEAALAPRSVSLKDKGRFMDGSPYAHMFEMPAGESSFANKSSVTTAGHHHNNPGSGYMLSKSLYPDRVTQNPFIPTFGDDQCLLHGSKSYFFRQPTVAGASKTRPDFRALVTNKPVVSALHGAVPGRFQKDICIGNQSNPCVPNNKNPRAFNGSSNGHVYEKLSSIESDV

Molecular target: GluN1/GluN2B-F114AzF receptors (Rattus norvegicus (GluN1-1a); Mus musculus (GluN2B), UniProt P35439+Q01097)
Test: Ifenprodil and Zn2+ inhibition dose-response, TEVC in Xenopus laevis oocytes
Format: cell-based
Conditions: F114AzF mutant
Experimental: Oocytes were prepared and injected as described previously. Recombinant NMDARs were expressed in Xenopus laevis oocytes after nuclear injection of 36 nl of a mixture cDNAs encoding various GluN1 and GluN2 subunits (ratio 1:1, 10 ng/μl for GluN2A and 30 ng/μl for GluN2B). For Uaa incorporation, oocytes were co-injected with a 36 nl mixture of cDNAs containing GluN1, GluN2, Yam, and aaRS as follows, unless otherwise indicated in the text: GluN1-wt (60 ng/μl), GluN2A-F115AzF (60 ng/μl), Yam (5 ng/μl), AzF-RS (2.5 ng/μl); or, GluN1-wt (80 ng/μl), GluN2B-F114AzF (80 ng/μl), Yam (10 ng/μl), AzF-RS (5 ng/μl). […]
For all experiments, the standard external solutions contained: 100 mM NaCl, […] BaCl2, and 5 mM HEPES, pH adjusted to 7.3 with KOH. […] Currents were recorded and measured at a holding potential of −60 mV at room temperature.
The measurements at 30 μM were corrected by multiply with a correcting value to remove the pore blocking effect at −60 mV[49]. […] Spermine potentiation was analyzed as described earlier. […] Spermine sensitivity was assessed at pH 6.5 in order to maximize the spermine-induced potentiation. […] Each τon was then normalized to the mean τon of wt receptors measured the same day. […]

## CC(C(O)c1ccc(O)cc1)N1CCC(Cc2ccccc2)CC1 (centres unmarked) [ifenprodil]
After UV
  Ifenprodil Hill coefficient nH: 0.69
Before UV
  Ifenprodil Hill coefficient nH: 1.04
